These results are taken from US20240384268A1, “Oligonucleotides” (Hudson Institute of Medical Research, priority 2021, published 2024).

Sequences of proteins named here, by UniProt entry; tags and fusion partners are left off. Residues count along the entry.
UniProt P58681, 27-1050 Y264H: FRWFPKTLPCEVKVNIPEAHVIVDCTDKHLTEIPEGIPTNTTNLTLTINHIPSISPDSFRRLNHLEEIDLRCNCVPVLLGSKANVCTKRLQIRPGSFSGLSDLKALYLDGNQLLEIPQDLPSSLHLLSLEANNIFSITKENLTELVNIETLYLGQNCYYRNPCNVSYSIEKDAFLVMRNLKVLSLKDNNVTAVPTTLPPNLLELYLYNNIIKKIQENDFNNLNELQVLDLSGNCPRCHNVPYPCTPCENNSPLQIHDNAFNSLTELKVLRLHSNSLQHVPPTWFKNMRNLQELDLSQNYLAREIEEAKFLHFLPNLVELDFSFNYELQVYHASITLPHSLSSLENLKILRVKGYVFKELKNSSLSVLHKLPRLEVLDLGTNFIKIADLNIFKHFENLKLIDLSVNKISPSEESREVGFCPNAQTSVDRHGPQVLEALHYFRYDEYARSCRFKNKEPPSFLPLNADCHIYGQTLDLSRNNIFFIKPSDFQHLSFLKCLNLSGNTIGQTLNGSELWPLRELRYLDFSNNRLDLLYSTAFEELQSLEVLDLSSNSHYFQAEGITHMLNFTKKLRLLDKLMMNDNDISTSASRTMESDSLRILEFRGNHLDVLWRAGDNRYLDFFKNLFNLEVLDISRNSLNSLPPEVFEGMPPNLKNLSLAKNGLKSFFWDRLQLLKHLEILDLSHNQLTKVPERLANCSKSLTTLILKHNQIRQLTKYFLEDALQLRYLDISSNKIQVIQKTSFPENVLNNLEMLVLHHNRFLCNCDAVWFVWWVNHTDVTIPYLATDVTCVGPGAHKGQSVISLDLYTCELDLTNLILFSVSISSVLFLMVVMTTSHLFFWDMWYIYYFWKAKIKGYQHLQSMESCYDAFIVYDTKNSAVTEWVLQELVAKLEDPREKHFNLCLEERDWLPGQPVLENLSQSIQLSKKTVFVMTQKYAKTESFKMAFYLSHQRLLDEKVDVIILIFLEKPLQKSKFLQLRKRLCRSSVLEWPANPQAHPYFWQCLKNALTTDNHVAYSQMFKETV
UniProt Q8N884, whole entry: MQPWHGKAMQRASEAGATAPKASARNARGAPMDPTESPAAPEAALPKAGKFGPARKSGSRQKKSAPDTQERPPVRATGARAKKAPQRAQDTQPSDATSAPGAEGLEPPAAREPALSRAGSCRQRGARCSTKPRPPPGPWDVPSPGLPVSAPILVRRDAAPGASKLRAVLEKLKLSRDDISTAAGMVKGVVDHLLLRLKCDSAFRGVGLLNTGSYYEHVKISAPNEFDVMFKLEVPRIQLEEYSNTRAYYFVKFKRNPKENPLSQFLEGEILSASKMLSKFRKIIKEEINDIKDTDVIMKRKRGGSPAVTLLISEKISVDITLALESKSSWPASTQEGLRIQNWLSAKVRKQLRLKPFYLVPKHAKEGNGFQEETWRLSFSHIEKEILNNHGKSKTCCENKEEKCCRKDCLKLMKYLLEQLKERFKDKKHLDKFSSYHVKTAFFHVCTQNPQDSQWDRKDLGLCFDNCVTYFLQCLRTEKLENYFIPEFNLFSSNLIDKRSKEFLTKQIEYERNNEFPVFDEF

One data set has as its target TLR7 (Mus musculus, UniProt P58681, Y264H). Description: Constitutive TLR7 activation in Tlr7 Y264H primary BMDMs, RT-qPCR (TNFα, Oas3). It counts as cell-based. Conditions: 200 nM ASO overnight. Here is the method:
FIG. 15: Primary BMDMs from wildtype (WT) and Tlr7 […] mutant mice were pre-treated overnight with 200 nM of indicated ASOs prior to mRNA purification and RT-qPCR analyses. […] In such examples, inhibition of TLR7 activity can be identified by observation of an overall decreased TLR7 response of the cell population, or a lower proportion of cells having TLR7-positive activity as compared to positive control condition in which cells are treated with TLR7 agonist in the absence of the oligonucleotide (or in the presence of an appropriate control inhibitory agent). In one example, 293[…]7 (referred to as HEK-TLR7) cells are transfected with pNF-κB-Luc4 reporter, incubated with an oligonucleotide, and then stimulated with R848. TLR7 activity can be determined by a luciferase assay, which measures activated NF-κB by luminescence. TLR7 activity can also be analysed by measuring cytokine levels, for example by ELISA. […] Alternatively, such cells may express a constitutively active form of TLR7 (e.g., Tlr7^[…]). TLR7 activity may then be assessed by the gene or protein expression of TLR7-responsive genes, such as Tnfα and Oas3. […] NO: 324); […] NO: 327); hIFI44: […] NO: 328); hIFI44: […] NO: 329); Human IFIT2: […] NO: 330); […] NO: 331); Human cGAS: […] NO: 333); Mouse Rsad2: […] NO: 335); […] Mouse […] NO: 339); Mouse […] NO: 341). Mouse OAS3: […] NO: 342); mOAS3-REV […] NO: 343);
For orientation: Real-time PCR tracks product formation cycle by cycle.

A further data set addresses cGAS (Homo sapiens, UniProt Q8N884). Description: ISD70-driven IP-10 (and IFN-β) production in THP-1 cells, ELISA. It counts as cell-based. More on the design: endogenous in cells; host or cells: THP-1 (undifferentiated). Conditions: THP-1 UNC93B1−/− and UNC93B1 WT; 100 or 250 nM ASO 6 h; ISD70 overnight. Here is the method:
The ability of an oligonucleotide to inhibit cGAS activity can, for example, be analysed by incubating cells which express cGAS with an oligonucleotide, then stimulating said cells with a cGAS agonist (e.g., 70-bp interferon stimulating DNA or ISD70; 45-bp interferon stimulating DNA or ISD45), and analysing the overall cGAS response in the cell population, or analysing the proportion of cells having cGAS-positive activity after a defined period of time.
In such examples, inhibition of cGAS activity can be identified by observation of an overall decreased cGAS response of the cell population, or a lower proportion of cells having cGAS-positive activity as compared to positive control condition in which cells are treated with cGAS agonist in the absence of the oligonucleotide (or in the presence of an appropriate control inhibitory agent). In one example, THP-1 or HT-29 cells are transfected with ISD70 and incubated with an oligonucleotide. cGAS activity can then be determined by cytokine (e.g., IP-10 and/or IFNβ) expression (e.g., gene and/or protein expression) and/or secretion levels, such as by ELISA. A similar assay can be performed with LL171 cells transfected with ISD45. […] By way of example, cGAS enzymatic activity may be assessed in vitro using recombinant cGAS and then measuring activity thereof by way of a cGAMP ELISA. […]
(In general: In an ELISA, binding on a coated surface is turned into a signal by an enzyme label.)

d = 2'-deoxy (DNA); m = 2'-O-methyl

“mC*mG*mU*T*T*C*C*C*C*C*C*C*C*C*C*C*C*C*C*C (CGUTTCCCCCCCCCCCCCCC; antisense; sugars from the 5' end m3 d17, all phosphorothioate, methylation of C not given here) [[C2]Mut1-v3-dC]”: in the data set with TLR7, the “constitutive TLR7 activation (TNFα and Oas3 mRNA; in words)” value is “but not”. On to “mC*mU*mU*mU*mA*G*T*C*G*T*A*G*T*T*G*mC*mU*mU*mC*mC (CUUUAGTCGTAGTTGCUUCC; sugars from the 5' end m5 d10 m5, all phosphorothioate, methylation of C not given here) [ASO11]”, for which the “effect on ISD70 sensing in UNC93B1-deficient and matched wild-type cells (in words)” value in the data set with cGAS was “not seen”. On the same count and under the same terms, to “mG*mC*mA*mG*mU*C*T*C*C*A*T*G*T*C*C*mC*mA*mG*mG*mC (GCAGUCTCCATGTCCCAGGC; antisense; sugars from the 5' end m5 d10 m5, all phosphorothioate, methylation of C not given here) [[CDKN2B-AS1]2234]” belongs “dose-dependent inhibitory effect”. Consider “mG*mG*mU*A*T*C*C*C*C*C*C*C*C*C*C*C*C*C*C*C (GGUATCCCCCCCCCCCCCCC; antisense; sugars from the 5' end m3 d17, all phosphorothioate, methylation of C not given here) [[C2]Mut1-dC]”, for which, in the data set with TLR7, the “constitutive TLR7 activation (TNFα and Oas3 mRNA; in words)” value is “significantly reduced constitutive TLR7 activation”.
